Each structure is given as a SMILES string.

In the experiment the target is Beta-secretase 1 [1-458] (Homo sapiens, UniProt P56817). As to the kind of experiment: BACE Enzyme Assay (Ex.434). Conditions: pH 4.5.

`COC1CCC2(CC1)Cc1ccc(C#CC(F)(F)F)cc1C21N=C(N)N(C)C1=O` (stereo unspecified) had an IC50 of 4.9 nM.

The term IC50 denotes the concentration needed to halve the response being measured. A lower IC50 goes with greater potency in that assay.

The values are drawn from BindingDB's records for US9212153.
